These results are taken from patent US9987369B2, “Vitamin functionalized gel-forming block copolymers for biomedical applications” (INTERNATIONAL BUSINESS MACHINES CORPORATION, priority 2016, dated 2018).

Assay [1] concerns BT474 tumor. Briefly: in vivo anti-tumor efficacy. Also on record: species or system mice. As to conditions: 4×10 mg/kg weekly. On the procedure: Female BALB/c nude mice, weighing 18 g to 22 g were injected subcutaneously with 200 microliters of a cell suspension (1:1 with Matrigel) (BD Biosciences, U.S.A.) containing 5×10^6 BT474 cells. Three weeks after inoculation (when the tumor volume was 100 mm^3 to 120 mm^3), the tumor-bearing mice were randomly divided into several groups (7 to 10 mice per group).
All mice were injected only once on the first day of treatment (Day 0).
The tumor size was measured by calipers in two orthogonal diameters and the volume was calculated as L×W2/2, where L and W are the major and minor diameters respectively. At the end of the treatment, a two-tailed Student's t test was used to statistically evaluate the difference in tumor volume and P<0.05 was considered to indicate a statistically significant difference. In addition, the toxicities of the different formulations were evaluated by monitoring the change in mouse body weight over the course of treatment.

Assay [2] concerns HER2/neu-overexpressing human breast cancer BT474 cells. The assay is described as follows: cytotoxicity of herceptin delivered by hydrogels (MTT). It is filed as cell-based. Particulars: 120 hours treatment.
Assay [3] has as its system BT474 tumor. The assay is described as follows: histological analysis of tumors (TUNEL, H&E). The format is in vivo, mice. As to conditions: 28 days after one injection, 30 mg/kg. The text has this: For histological examination, the samples were fixed in 4% neutral buffered formalin and then stained with hematoxylin/eosin (H&E) using standard techniques. Apoptotic cells of tumor samples were identified using Terminal Transferase dUTP Nick-End Labeling (TUNEL) assay. The slides were counterstained with hematoxylin to visualize nuclei and examined using a stereomicroscope (Nikon, U.S.A.).

Regarding “herceptin solution: herceptin dissolved using sterile HPLC grade water”, the “tumor shrinkage by the end of the treatment” value in assay [1] (solution intravenous) is on record as 32%. The “tumor size over the course of treatment” value in assay [1] (solution subcutaneous, ~4 cm away from tumor) is reported as “remained similar in size”. In addition, in assay [2], the IC50 of herceptin was < 5 µg/mL.

Regarding “herceptin: recombinant humanized mAb that can selectively bind to HER2 proteins”, the “TUNEL staining of tumor cells” value in assay [3] is reported as “mostly apoptotic”.
